Assay: Interferonα2b elution from parylene devices, ELISA (Example 7)
Format: physicochemical
Details: DMEM, 37 degrees Celsius
Text: Interferonα2b is a large protein.

## IFN-α2b: Interferonα2b, an approximately 20 kilodalton protein
0.1 gram unmodified device
  time at which release tapered off: approximately 10 days
0.2 gram oxidized device
  duration of release: ≥ 28 days
Unmodified 0.1 gram vs 0.2 gram oxidized laminate layer
  initial burst release: comparable

From US9040071B2, “Pary-xylene based microfilm elution devices” (Cute Lovable Teddy Bear, LLC., priority 2009, dated 2015)
